Experimental data reported in ChEMBL document CHEMBL2331313, “Synthesis and SAR study of modulators inhibiting tRXRα-dependent AKT activation” (Eur J Med Chem, 2013).
Calls of active or inactive are those of the source.

Tests used:
Format in all cases: cell-based
[1] = molecular target: T1, Retinoic acid receptor RXR-alpha (Homo sapiens) (UniProt P19793); assay: Inhibition of RXRalpha in human A549 cells assessed as inhibition of TNFalpha-induced Akt phosphorylation at 30 uM incubated for 1 hr prior to TNFalpha-induction measured after 30 mins by Western blot analysis
T1 sequence (whole entry): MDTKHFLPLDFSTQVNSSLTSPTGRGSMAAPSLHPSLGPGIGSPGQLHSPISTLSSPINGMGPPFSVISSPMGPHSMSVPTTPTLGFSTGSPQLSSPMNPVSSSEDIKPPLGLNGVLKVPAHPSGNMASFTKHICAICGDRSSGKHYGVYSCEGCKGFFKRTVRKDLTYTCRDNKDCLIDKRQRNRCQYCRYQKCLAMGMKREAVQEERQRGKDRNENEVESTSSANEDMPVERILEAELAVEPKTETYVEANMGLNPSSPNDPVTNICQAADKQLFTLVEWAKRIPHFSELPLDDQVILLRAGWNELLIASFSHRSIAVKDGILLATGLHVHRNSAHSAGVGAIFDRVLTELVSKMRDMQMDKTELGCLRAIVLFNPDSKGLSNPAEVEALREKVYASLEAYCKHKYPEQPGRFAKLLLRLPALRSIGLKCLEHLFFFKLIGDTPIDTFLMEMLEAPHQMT
Outline: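 A549 cells (DMEM, 10% FBS) pretreated 1 hr with 30 μM compound, then TNFα (10 ng/mL) for 30 min. Phospho-AKT (1:1000) and total AKT (1:1000) immunoblotted after 10% SDS-PAGE, with ECL detection.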

[2] = molecular target: T1, Retinoic acid receptor RXR-alpha (Homo sapiens); assay: Inhibition of RXRalpha in human HepG2 cells assessed as inhibition of TNFalpha-induced Akt phosphorylation
[3] = molecular target: T1, Retinoic acid receptor RXR-alpha (Homo sapiens); assay: Antagonist activity at RXRalpha (unknown origin) expressed in HCT116 cells assessed as inhibition of 9-cis-RA-induced galactosidase activity after 12 hrs by gal4 reporter gene assay; conditions: HCT-116
Outline: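 GAL4-RXRα-LBD transactivation in HCT-116 cells: cells transfected for 24 hr with pG5 luciferase reporter (50 ng/well) plus pGAL4-RXRα-LBD vector (50 ng/well), then exposed to 9-cis-RA (10^-7 M) together with varied compound concentrations for 12 hr. Luciferase read by dual-luciferase assay. Cells grown in DMEM with 10% FBS, 37°C, 5% CO2.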

[4] = molecular target: T1, Retinoic acid receptor RXR-alpha (Homo sapiens); assay: Inhibition of RXRalpha in human HCT116 cells assessed as inhibition of TNFalpha-induced Akt phosphorylation; conditions: HCT-116

Measured: inhibition

CC(C)c1ccc(/C=C2\C=C(CC(=O)O)c3cc(F)ccc32)cc1
active: [1] | [2] | [3] Dose-dependent effect | [4]
